Results reported in article PMC6755983.

By UniProt entry, the sequences of proteins in these tests, tags left out. Where a name states a change or a piece, a line headed by the entry shows the natural chain unless it says otherwise.
UniProt O08556: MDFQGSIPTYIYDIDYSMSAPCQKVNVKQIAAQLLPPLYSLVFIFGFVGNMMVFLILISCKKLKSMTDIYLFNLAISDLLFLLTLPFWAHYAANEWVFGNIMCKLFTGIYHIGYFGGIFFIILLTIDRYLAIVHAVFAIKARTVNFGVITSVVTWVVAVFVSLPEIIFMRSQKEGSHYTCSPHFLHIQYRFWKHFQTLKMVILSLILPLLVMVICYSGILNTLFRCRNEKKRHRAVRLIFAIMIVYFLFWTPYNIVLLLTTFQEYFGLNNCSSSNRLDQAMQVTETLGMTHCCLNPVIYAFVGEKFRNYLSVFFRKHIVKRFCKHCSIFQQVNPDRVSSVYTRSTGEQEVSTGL

Target: CCR5 receptor on rat bone marrow-derived macrophages (rat (endogenous in bone marrow-derived macrophages)) (UniProt O08556)

Substance “CCL5 secreted into GH3-Aip-KD cell-conditioned media (from UniProt P50231 25-92) (ligand)” has a macrophage migration towards GH3-Aip-KD-conditioned media, macrophages treated with maraviroc (200 nM, 24 h) against vehicle of 50%.
